Assay results taken from ChEMBL document CHEMBL4680357, “The Basicity Makes the Difference: Improved Canavanine-Derived Inhibitors of the Proprotein Convertase Furin” (ACS Med Chem Lett, 2021).

The chains behind the UniProt entries cited, without tags or fusion partners.
UniProt P09958, whole entry: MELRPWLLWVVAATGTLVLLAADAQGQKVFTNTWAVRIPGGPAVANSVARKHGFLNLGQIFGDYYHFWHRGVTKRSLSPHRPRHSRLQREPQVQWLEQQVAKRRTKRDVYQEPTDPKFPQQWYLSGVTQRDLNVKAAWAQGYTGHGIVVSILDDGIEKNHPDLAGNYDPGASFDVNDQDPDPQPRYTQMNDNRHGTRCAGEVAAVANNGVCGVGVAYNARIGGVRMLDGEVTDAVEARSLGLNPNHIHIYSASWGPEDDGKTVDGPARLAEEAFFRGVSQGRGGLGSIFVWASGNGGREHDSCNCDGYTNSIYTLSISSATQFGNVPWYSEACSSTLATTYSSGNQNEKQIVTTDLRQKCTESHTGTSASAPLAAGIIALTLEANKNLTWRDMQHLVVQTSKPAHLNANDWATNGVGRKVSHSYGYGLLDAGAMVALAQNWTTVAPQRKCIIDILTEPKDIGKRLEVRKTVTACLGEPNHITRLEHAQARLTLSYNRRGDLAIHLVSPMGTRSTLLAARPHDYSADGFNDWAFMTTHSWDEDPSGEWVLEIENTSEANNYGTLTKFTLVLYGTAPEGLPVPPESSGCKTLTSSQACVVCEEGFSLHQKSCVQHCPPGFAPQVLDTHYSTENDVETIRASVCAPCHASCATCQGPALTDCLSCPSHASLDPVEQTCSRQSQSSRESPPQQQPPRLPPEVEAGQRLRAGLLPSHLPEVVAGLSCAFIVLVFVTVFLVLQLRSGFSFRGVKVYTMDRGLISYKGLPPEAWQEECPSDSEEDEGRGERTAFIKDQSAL

Target: Furin (Homo sapiens, UniProt P09958)
Test: Inhibition of recombinant soluble human furin using Phac-Arg-Val-Arg-Arg-AMC fluorogenic substrate
Outline: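 Enzyme kinetic assay under standard conditions at pH 7.0, using recombinant soluble human furin and the fluorogenic AMC substrate. Inhibition constants were determined from the kinetics.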

With CC(C)(C)[C@H](NC(=O)[C@H](CCONC(=N)N)NC(=O)Cc1ccc(CN)cc1)C(=O)N[C@@H](CCCCN)C(=O)NCc1ccc(C(=N)N)cc1 the Ki was 0.114 nM.
